From patent US20060079503A1, “Thiazolidinones and the use therof as polo-like kinase inhibitors” (SCHERING AKTIENGESELLSCHAFT, priority 2002, published 2006)

Sequences of proteins named here, by UniProt entry; tags and fusion partners are left off.
UniProt P53350, whole entry: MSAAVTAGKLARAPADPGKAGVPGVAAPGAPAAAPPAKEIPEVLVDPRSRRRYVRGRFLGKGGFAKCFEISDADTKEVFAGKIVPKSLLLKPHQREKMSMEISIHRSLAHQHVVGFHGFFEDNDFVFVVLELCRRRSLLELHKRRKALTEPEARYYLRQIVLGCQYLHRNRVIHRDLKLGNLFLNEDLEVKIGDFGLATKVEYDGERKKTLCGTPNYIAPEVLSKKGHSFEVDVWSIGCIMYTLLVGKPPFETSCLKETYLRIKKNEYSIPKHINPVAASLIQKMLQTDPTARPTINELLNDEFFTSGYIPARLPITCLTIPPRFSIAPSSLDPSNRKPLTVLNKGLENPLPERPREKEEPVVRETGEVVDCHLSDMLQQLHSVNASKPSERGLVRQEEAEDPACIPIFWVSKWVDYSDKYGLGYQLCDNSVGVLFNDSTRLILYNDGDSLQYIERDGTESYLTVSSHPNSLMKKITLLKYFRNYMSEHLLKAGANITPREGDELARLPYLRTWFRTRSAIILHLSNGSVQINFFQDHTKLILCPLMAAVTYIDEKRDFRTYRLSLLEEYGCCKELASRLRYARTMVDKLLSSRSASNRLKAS

The molecules below were run against Recombinant human Plk-1 (6×His) (Homo sapiens, UniProt P53350) (assay: PLK enzyme assay (33P-γ-ATP incorporation into biotinylated casein, SPA beads)). Conditions: read-out: Inhibition of PLK-1 IC50; 10 ng PLK enzyme, 90 minutes at room temperature, 0.5 μmol of ATP, casein substrate.
Procedure: Recombinant human Plk-1 (6×His) was purified from baculovirus-infected insect cells (Hi5).
10 ng of (produced in a recombinant manner and purified) PLK enzyme is incubated for 90 minutes at room temperature with biotinylated casein and 33P-γ-ATP as a substrate in a volume of 15 μl in 384-well Greiner small-volume microtiter plates (final concentrations in the buffer: 660 ng/ml of PLK; 0.7 μmol of casein, 0.5 μmol of ATP incl. 400 nCi/ml of 33P-γ-ATP; 10 mmol of MgCl2, 1 mmol of MnCl2; 0.01% NP40; 1 mmol of DTT, protease inhibitors; 0.1 mmol of Na2VO3 in 50 mmol of HEPES, pH 7.5). To complete the reaction, 5 μl of stop solution (500 μmol of ATP; 500 mmol of EDTA; 1% Triton X100; 100 mg/ml of streptavidin-coated SPA beads in PBS) is added. After the microtiter plate is sealed by film, the beads are sedimented by centrifuging (10 minutes, 1500 rpm). The incorporation of 33P-γ-ATP in casein is intended as a measurement of enzyme activity by β-counting.
Test substances are used in various concentrations (0 μmol, as well as in the range of 0.01-30 μmol). The final concentration of the solvent dimethyl sulfoxide is 1.5% in all batches.

First: CCOC(=O)C(C#N)=c1sc(=CNC(=O)OC)c(=O)n1CC (single isomer, unassigned) [56]
Second: CCOC(=O)C(C#N)=c1sc(=CNc2ccc(C(N)=O)cc2)c(=O)n1CC (mixture of isomers) [Example 10, (E or Z)-{5-(E/Z)-[(4-Carbamoyl-phenylamino)-methylene]-3-ethyl-4-oxo-thiazolidin-2-ylidene}-cyanoacetic acid ethyl ester]
The IC50 of the first is 5.4-fold higher: 2200 nM for the first, 410 nM for the second. The second is the more potent here.

CCOC(=O)C(C#N)=c1sc(=CNC(=O)OC)c(=O)n1CC (single isomer, unassigned) [55] gave an IC50 of 1500 nM.
